Assay results taken from patent US10745393B2, “Small molecular probes, processes and use thereof” (JAWAHARLAL NEHRU CENTRE FOR ADVANCED SCIENTIFIC RESEARCH, priority 2014, dated 2020).

Columns and labels:
DNA [1] = test: Comparison of DNA dyes: sequence selectivity and fluorescence of free/DNA bound dye; assay type: binding; conditions: fluorescence studies with dsDNAs
d(AATT)5 = test: Absorption / fluorescence response with self-complementary d(AATT)5 duplex; assay type: binding; conditions: probe 10 μM, Tris-HCl buffer
DNA [2] = conditions: cited from earlier work

Substance: (E)-3-(N-Methyl 2-(benzo[d]thiazol-2-yl)vinyl)-7-(bis(2-chloroethyl)amino)-2H-chromen-2-one
- preferential binding affinity, AT-sites versus GC-sites (DNA [1]): towards AT-sites than GC-sites
- fluorescence with d(AATT)5 compared with (D1)mix and (D2)mix (d(AATT)5): maximum fluorescence in presence of d(AATT)5 over (D1)mix and (D2)mix
- shift of absorption spectra with d(AATT)5, (D1)mix and (D2)mix (d(AATT)5): slight red shift

Substance: Hoechst 33258
- Selectivity (DNA [2]; Table 3, commercial dyes): AT rich
- Fluorescence qauntum yield (ΦF) DNA bound dye (DNA [2]; Table 3, superscript a, commercial dyes): 0.34 ^a
